Experimental data reported in PubChem BioAssay AID1117263 (The Scripps Research Institute Molecular Screening Center, 2014).
Only a part is listed here, and it is no random draw. The source made the active and inactive calls.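 Rule for the calls: active = mean inhibition of the replicates above the hit cutoff set in the primary screen (cut at about 17% in these data); inactive = the rest.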

Protein sequences, listed by entry. Tags and fused reporters are not part of them.
UniProt Q9HAT2, whole entry: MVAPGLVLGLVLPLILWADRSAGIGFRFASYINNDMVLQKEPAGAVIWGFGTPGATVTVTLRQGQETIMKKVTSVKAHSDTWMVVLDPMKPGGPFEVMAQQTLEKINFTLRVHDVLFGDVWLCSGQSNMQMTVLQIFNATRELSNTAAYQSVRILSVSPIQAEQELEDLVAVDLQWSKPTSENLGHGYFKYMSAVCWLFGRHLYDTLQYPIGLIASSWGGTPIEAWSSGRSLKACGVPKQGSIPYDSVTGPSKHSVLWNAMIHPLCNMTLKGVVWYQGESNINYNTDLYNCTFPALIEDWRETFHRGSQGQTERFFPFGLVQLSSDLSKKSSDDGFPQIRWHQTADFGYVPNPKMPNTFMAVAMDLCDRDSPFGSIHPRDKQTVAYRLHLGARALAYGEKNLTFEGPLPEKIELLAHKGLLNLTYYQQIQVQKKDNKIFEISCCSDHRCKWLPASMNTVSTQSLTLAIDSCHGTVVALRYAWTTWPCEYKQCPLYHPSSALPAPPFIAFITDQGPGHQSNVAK

Molecular target: Sialate O-acetylesterase (Homo sapiens) (UniProt Q9HAT2)
Test: sialate O-acetylesterase blockers re-tested – biochemical, fluorescence polarization, FP-Rh probe, triplicate, confirmation (AID 1117263);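 note: 0% = SIAE with DMSO and probe and 100% = probe without SIAE; inhibitors lower polarization as more probe stays unbound to SIAE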
Conditions: SIAE FP-Rh activity-based probe, at 9.66 µM, active compounds read high

| Compound | inhibition |
| --- | --- |
| CN1CCCCC1COC(=O)C1(O)c2ccccc2CCc2ccccc21 (stereo not drawn) | inactive: 2.2% |
| CP(=O)(Nc1ccccn1)Oc1ccc(Cl)cc1 (stereo not drawn) | active: 53% |
| CP(=O)(NC(=O)Nc1ccccc1)Oc1ccccc1 (stereo not drawn) | active: 74.9% |
